Assays:
[1] = target: human 5HT3 receptor (Homo sapiens, UniProt P46098); test: 5HT3 binding on recombinant CHO cells with [3H]BRL 43694; conditions: at 10 1M
[2] = target: muscle-type nAChR (Homo sapiens, UniProt P02708+P07510+Q07001); test: Muscle-type nAChR binding in human TE671 cells with [125I]α-BTX; conditions: at 10 μM
[3] = tested on: seizure induced by the nerve agent diisopropylfluorophosphate (DFP); test: DFP toxicity animal model, anti-seizure activity
[4] = tested on: time-dependent memory deficit model; test: Novel Object Recognition test, time-dependent memory deficit model; conditions: for relative cognitive score (d2): i.p. 15 min before T1, 24 h inter-trial interval

The chains behind the UniProt entries cited, without tags or fusion partners. Where a name states a change or a piece, a line headed by the entry shows the natural chain unless it says otherwise. Residues count along the entry.
UniProt P46098, 24-478 limits assumed: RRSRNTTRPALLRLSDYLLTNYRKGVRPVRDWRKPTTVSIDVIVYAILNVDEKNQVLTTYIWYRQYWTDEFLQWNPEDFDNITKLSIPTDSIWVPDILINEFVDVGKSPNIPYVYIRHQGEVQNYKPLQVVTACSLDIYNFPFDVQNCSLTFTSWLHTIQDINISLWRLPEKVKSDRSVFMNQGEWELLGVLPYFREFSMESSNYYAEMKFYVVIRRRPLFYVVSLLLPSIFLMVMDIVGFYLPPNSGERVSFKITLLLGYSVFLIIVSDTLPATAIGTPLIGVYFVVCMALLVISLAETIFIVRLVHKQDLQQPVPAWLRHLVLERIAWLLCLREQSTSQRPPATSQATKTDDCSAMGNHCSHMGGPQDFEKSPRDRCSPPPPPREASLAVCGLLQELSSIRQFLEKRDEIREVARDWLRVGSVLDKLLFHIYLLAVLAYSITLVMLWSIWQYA
UniProt P02708: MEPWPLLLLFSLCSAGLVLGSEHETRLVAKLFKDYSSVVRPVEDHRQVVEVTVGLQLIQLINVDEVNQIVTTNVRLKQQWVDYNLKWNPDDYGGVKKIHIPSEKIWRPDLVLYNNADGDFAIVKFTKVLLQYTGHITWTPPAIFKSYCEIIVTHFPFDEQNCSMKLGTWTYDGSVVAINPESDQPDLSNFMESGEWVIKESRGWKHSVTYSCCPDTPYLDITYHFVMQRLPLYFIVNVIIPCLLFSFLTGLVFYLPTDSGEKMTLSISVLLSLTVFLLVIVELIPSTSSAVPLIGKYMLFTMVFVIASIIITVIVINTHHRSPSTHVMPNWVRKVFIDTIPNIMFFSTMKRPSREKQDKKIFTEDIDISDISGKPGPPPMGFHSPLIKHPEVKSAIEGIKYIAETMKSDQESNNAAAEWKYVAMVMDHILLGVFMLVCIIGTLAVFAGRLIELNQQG
UniProt P07510: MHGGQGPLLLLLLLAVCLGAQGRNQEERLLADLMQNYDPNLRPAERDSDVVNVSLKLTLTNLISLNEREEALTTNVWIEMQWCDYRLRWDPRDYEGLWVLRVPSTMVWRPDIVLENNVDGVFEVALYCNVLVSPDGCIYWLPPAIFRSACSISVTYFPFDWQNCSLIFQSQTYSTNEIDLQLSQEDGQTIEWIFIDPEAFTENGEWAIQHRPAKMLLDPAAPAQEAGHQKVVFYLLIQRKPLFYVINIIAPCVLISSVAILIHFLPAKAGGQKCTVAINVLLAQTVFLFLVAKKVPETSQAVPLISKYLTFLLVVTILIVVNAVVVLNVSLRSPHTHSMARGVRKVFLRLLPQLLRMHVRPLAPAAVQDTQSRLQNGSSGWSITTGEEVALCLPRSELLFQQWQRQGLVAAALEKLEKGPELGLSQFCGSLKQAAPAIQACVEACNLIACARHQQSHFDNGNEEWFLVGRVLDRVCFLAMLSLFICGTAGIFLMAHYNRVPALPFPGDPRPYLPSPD
UniProt Q07001: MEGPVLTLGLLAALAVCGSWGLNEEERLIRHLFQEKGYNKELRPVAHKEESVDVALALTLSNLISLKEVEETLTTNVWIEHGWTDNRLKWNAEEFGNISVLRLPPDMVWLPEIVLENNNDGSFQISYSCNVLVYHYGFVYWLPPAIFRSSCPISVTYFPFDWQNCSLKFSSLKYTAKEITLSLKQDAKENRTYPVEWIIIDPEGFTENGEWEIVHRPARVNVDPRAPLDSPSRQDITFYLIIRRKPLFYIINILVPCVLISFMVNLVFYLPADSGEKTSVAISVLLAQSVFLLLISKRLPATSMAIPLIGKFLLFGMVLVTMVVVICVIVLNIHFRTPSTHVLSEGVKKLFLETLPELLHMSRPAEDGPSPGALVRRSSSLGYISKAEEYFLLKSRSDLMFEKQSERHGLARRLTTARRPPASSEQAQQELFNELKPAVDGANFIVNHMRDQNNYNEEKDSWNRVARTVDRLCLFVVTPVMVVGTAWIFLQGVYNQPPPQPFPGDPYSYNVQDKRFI

| Compound | binding to the 5HT3 receptor [1] | binding to the muscle-type nAChR [2] | Normalized % neuroprotection (antagonism of DFP-induced seizure-like behaviors) ([3]; compared with DFP controls, over a 2 h period post-injection) | Seizure score (mean ± SD) ([3]; pretreatment before DFP, 2 h period post-injection) | Normalized % seizure ([3]; relative to DFP controls) | cognition in Novel Object Recognition test ([4]; administered 1 hour after T1, 1.0 mg/kg) | cognition in Novel Object Recognition test ([4]; administered 1 hour after T1, about 3.0 mg/kg) | relative cognitive score (d2) ([4]; 3.0 mg/kg) | relative cognitive score (d2) ([4]; doses up to 1.0 mg/kg) |
| --- | --- | --- | --- | --- | --- | --- | --- | --- | --- |
| O=C(NCC1CCN(Cc2ccccc2)CC1)c1cn(Cc2cccc(Cl)c2)nn1 | 8.4% | no detectable binding |  |  |  |  |  |  |  |
| CN(CC1CCN(Cc2ccccc2)CC1)C(=O)c1cn(Cc2ccccc2Cl)nn1 |  |  | 93.4% | 0.6 ± 1.3 | 6.6% | significantly enhances cognition | reduced cognition | no increase in cognition | progressive increase |

From US9108949B2, “Compounds and methods of prophylaxis and treatment regarding nicotinic receptor antagonists” (dated 2015)
